Test results: ChEMBL document CHEMBL1146651, “Selective urokinase-type plasminogen activator (uPA) inhibitors. Part 3: 1-isoquinolinylguanidines” (Bioorg Med Chem Lett, 2004)

What follows are compounds tested against Urokinase-type plasminogen activator (Homo sapiens, UniProt P00749).

| Compound | Ki [nM] |
| --- | --- |
| NC(N)=Nc1cc2ccccc2cn1 | 9300 |
| Cc1cnc(N=C(N)N)c2ccccc12 | 1400 |
| NC(N)=Nc1nccc2ccc(Br)cc12 | 800 |
| NC(N)=Nc1nccc2c(OCc3ccccc3)cccc12 | 4800 |
| N=C(N)Nc1nccc2ccc(C(=O)O)cc12 | 1000 |

More lines, in order of falling Ki, values ahead:

| Ki [nM] | Compound |
| --- | --- |
| 2340 | NC(N)=Nc1nccc2cc(Br)ccc12 |
| 580 | N=C(N)Nc1ncc(Br)c2ccccc12 |
| 340 | N=C(N)Nc1nccc2ccc(-c3ccc4c(c3)OCO4)cc12 |
| 200 | COc1ccc(-c2ccc3c(Cl)cnc(N=C(N)N)c3c2)cc1 |
